We go through one compound from publication PMC9699427 (Viruses, 2022).

The assay has as its target recombinant HIV-1 RT (Human immunodeficiency virus type 1 group M subtype B, UniProt P03366). Put plainly: biochemical.

As usually defined, the EC50 is the concentration at which the effect is half-maximal. Take `Cc1cc(C#N)cc(C)c1Oc1nc(Nc2ccc(C#N)cc2)nc(N)c1Br` [ETR, etravirine, reference compound]: the EC50 was 1310 ± 320 nM.
